Key:
[1] = pH-dependent solubility of PG; format: physicochemical; conditions: FIG. 9A
Excerpt: A major factor for the success of oral administration of PG is the optimization of delivery under the conditions that prevail in the gastric milieu. Shown in FIG. 9A are the results of the solubility of pentagastrin under various pH conditions. The results are represented in correlation to a gradient of relevant metabolic pH values within the gastric milieu, including values that are expected to occur following PPI treatment.

[2] = HCL-dependent degradation of PG without pepsin; format: physicochemical; conditions: pH 1.2 and 3.5, 37° C., absence of pepsin; FIG. 9B
Experimental: To test the effect of enzymatic degradation, the HCL-dependent degradation of PG without pepsin was tested at pH 1.2 and 3.5, at 37° C. […] The main product of degradation (>80% of all products) corresponds to the standard of pentapeptide without BOC (RT=8.83). Such a fragment will still be active in the eradication of H. pylori.

In the case of βAla-Trp-Met-Asp-PheNH2 [PG], the “solubility with escalating pH values” [1] is reported as “marked increase”, the “solubility (lowest level)” value ([1]; pH 1.2 with NaCl) is reported as 40 ppm and the “maximum loss of pentagastrin” value [2] is reported as 40%.

— patent publication US7271146B2, “Methods for treatment of Helicobacter pylori-associated disorders” (Vecta Ltd., priority 2002, dated 2007)
